From PubChem BioAssay
ALDH1A1 inh = inhibitors of human aldehyde dehydrogenase 1A1; Purified ALDH1A1, NADH fluorescence, propionaldehyde substrate; Potency, µM (titrated, usually from 75.3 µM), most hits filed as inhibitors; 220,000 compounds, 7.3% hits; AID 1030; active = well fitted inhibition curve with a large enough effect, not every such curve was filed as active; inconclusive = small, poorly fitted or top-dose-only effect, or another doubt; inactive = no such curve, though single readings can be large or run the other way
miR-21 reporter = miR-21 reporter, rising signal | HeLa miR-21 FLuc reporter, luciferase, 48 h | Potency, µM (top dose mostly 38.3 µM) | 340,000 tested, under 10 active | AID 2288; active = well fitted rising curve with a large enough effect; inconclusive = small, poorly fitted or top-dose-only effect; inactive = no such curve, though single readings can be large or run the other way;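 further: miR-21 action dims this reporter so a rising signal means less miR-21 action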
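HeLa cells stably expressing CMV-driven firefly luciferase with a downstream miR-21 binding sequence, endogenously expressing miR-21, were treated with titrations (up to about 40uM final) for 48 hours at 37 degree Celsius. Luciferase luminescence was read after lysis.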
Sfp PPTase inh = inhibitors of Bacillus subtilis Sfp phosphopantetheinyl transferase; Q9F4F7; Biochemical Sfp PPTase activity, qHTS; Potency, µM, hits mostly inhibitors; 310,000 compounds, 3.5% hits; AID 1490;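 also: the enzyme is Sfp with the accession as filed and its product quenches rhodamine fluorescence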
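Buffer: 50 mM Hepes-Na pH 7.6, 10 mM MgCl2, 0.01% Nonidet P-40, 0.01% BSA. Enzyme 15 nM, pre-exposed to compound 15 min; substrates then added and fluorescence change tracked over 30 min.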
KDM4E inh = blocks human JMJD2E demethylase activity; AID 2147; JMJD2E catalytic domain, FDH-coupled NADH fluorescence (FDH is formaldehyde dehydrogenase); Potency, µM (titrated, usually from 57.1 µM), most hits filed as inhibitors; 230,000 compounds, 1.6% hits; B2RXH2; active = well fitted inhibition curve with a large enough effect, not every such curve was filed as active; inconclusive = small, poorly fitted or top-dose-only effect, or another doubt; inactive = no such curve, though single readings can be large or run the other way; also: nearly all actives have a fitted effect of over 50% in size
G9a block = G9a (human) methyltransferase inhibition | G9a H3K9 monomethylation, AlphaScreen, 2 h | 350,000 compounds, 8.8% hits | Q96KQ7 | Potency, µM (highest dose often 102 µM), usual class: inhibitors | AID 504332; also: nearly all actives have a fitted effect of over 75% in size
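G9a (20 nM) was preincubated 15 min with compound, then reacted 2 h at room temperature with 500 nM biotin-H3K9 peptide and 20 µM SAM. Monomethyl-H3K9 detected by AlphaScreen using anti-H3K9me1 antibody.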
LMNA splice mod = changes lamin A minigene splicing in HeLa cells. Potency, µM (titrated, usually from 46.1 µM), usual class: inhibitors. 200,000 compounds, 0.01% hits. HeLa LMNA splicing GFP/RFP minigene ratio, 48 h; active = well fitted inhibition curve with a large enough effect in the signal ratio, with a control signal flat, not every such curve was filed as active; inconclusive = small, poorly fitted or top-dose-only effect, or effect the other way, or a change in a side signal; the % refers to the signal ratio
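S3 HeLa cells stably expressing lamin A-EGFP splicing minigene plus DsRed2, 600 cells/well, 48 h compound exposure at 37C. Laser-scanning cytometry; analysed as GFP (500-530 nm)/RFP (575-640 nm) total intensity ratio; 0.5% DMSO vehicle.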
A number is an active result; 0 = inactive; ? = inconclusive; - = no result given; [ ] = another dose, or the depositor's remark. This is a sample that favours compounds with a hit; in the whole collection about 13% have one here. Unless noted, calls follow the shape of the dose curve; as a rule, active = well fitted curve in the direction sought with a large enough effect; inconclusive = small, poorly fitted or top-dose-only effect, or another doubt; inactive = no such curve, though single readings can be large; an effect the other way counts as inactive or inconclusive.

SMILES | ALDH1A1 inh | miR-21 reporter | Sfp PPTase inh | KDM4E inh | G9a block | LMNA splice mod
CC(=O)NC1=NN(C(C)=O)C(C)(c2cccnc2)S1 (stereo not drawn) | 0 | 0 | 0 | 0 | 44.7µM | -
CCc1ccc(C2(C)SC(NC(C)=O)=NN2C(C)=O)cc1 (stereo not drawn) | 0 | 0 | 0 | 0 | 0 | 0
Cc1ccc(C(=O)CSC2=C(C#N)C(c3ccco3)CC(=O)N2)c(C)c1 (stereo not drawn) | ? | 0 | 50.1µM | 0 | ? | ?
CC(C)C1CC(=O)NC(SCC(=O)Nc2ccc(Br)cc2)=C1C#N (stereo not drawn) | 8.91µM | 0 | 0 | 0 | 0 | ?
CCc1ccc(NC(=O)CSC2=C(C#N)C(c3ccco3)C3=C(CCCC3=O)N2)cc1 (stereo not drawn) | ? | 0 | 0 | 0 | ? | 0
Cc1ccc(NC(=O)CSC2=C(C#N)C(c3ccco3)CC(=O)N2)cc1 (stereo not drawn) | 14.1µM | 0 | 0 | 0 | 0 | 0
COC(=O)CSC1=C(C#N)C(c2ccc(C)o2)CC(=O)N1 (stereo not drawn) | 0 | 0 | 0 | 0 | 0[12.7 µM] | ?
Cc1ccc(NC(=O)CSC2=C(C#N)C(c3ccco3)C3=C(CC(C)(C)CC3=O)N2)cc1 (stereo not drawn) | 12.6µM | 0 | 0 | 0 | 0[12.7 µM] | ?
COc1ccccc1C1CC(=O)NC(SCC(=O)Nc2ccccc2)=C1C#N (stereo not drawn) | ? | 0 | 0 | 0 | 0 | 0
CCCCc1cc(=O)oc2c(C)c(OCC(=O)NCC3CCC(C(=O)O)CC3)ccc12 (stereo not drawn) | - | 0 | 0 | - | 79.4µM | -
Cc1cc(=O)oc2c(C)c(OCC(=O)NCC3CCC(C(=O)O)CC3)ccc12 (stereo not drawn) | - | 0 | 0 | - | - | -
COc1ccc(NC(=O)CCN2C(=O)NC3(CCCC3)C2=O)cc1Cl | - | - | - | - | 0[12.7 µM] | -
O=C1c2sc3nc4n(c(=O)c3c2CCC1Br)CCCCC4 (stereo not drawn) | 8.91µM | 0 | 20µM | 17.8µM | 0[0.501 µM] | 0[0.0737 µM]
Cc1ccc(Cn2c(C)c3cnn(CC(=O)N4CCN(c5ccc(F)cc5)CC4)c(=O)c3c2C)cc1 | - | 0 | - | - | ? | -
Cc1ccccc1C1c2[nH]c3ccccc3c2CCN1Cc1cccn1-c1ncccn1 (stereo not drawn) | - | 0 | 0 | ? | 50.1µM | -
Fc1ccccc1C1c2[nH]c3ccccc3c2CCN1Cc1cccn1-c1ncccn1 (stereo not drawn) | 0 | 0 | 0 | 0 | - | -
CS(=O)(=O)N(Cc1ccc(C(=O)NN=C2CCCC2)cc1)c1ccccc1 | 1.26µM | 0 | 0 | 0 | 0 | 0
CS(=O)(=O)N(Cc1ccc(C(=O)NN=C2CCCCCC2)cc1)c1ccccc1 | 15.8µM | 0 | 0 | 0 | 0 | 0
CS(=O)(=O)N(Cc1ccc(C(=O)NC2CCCC2)cc1)c1ccccc1 | 0 | 0 | 0 | 0 | 0 | -
CC(C)(C)c1cc(NCc2ccccn2)n2ncc(-c3ccc(Cl)cc3)c2n1 | - | 0 | 0 | ? | - | -
CN(C)CCCNc1cc(C(C)(C)C)nc2c(-c3ccc(Cl)cc3)cnn12 | - | ? | 31.6µM | ? | 0 | -
N#CCc1cc2ccc3cccc4ccc(c1)c2c34 | - | 0 | 0 | ? | 0 | -
O=c1[nH]cnc2nc[nH]c12 | ? | - | 79.4µM | 0 | 0[12.7 µM] | 0
Cc1c(C(=O)O)cnc2c([N+](=O)[O-])cnn12 | 0 | 0 | 0 | 0 | 56.2µM | 0
CC(=O)Nc1cccc(N=NN2CCOCC2)c1 | 0 | 0 | 0 | 0 | - | -
SMILES | ALDH1A1 inh | miR-21 reporter | Sfp PPTase inh | KDM4E inh | G9a block | LMNA splice mod
CC(=O)Nc1cccc(N=NN2CCCCC2)c1 | 0 | 0 | 0 | 0 | 22.4µM | ?
CC(=O)NS(=O)(=O)c1ccc(N=NN2CCOCC2)cc1 | 0 | 0 | 0 | 0 | 0 | 0
O=C(O)c1ccc(N=NN2CCCCCC2)cc1 | 0 | 0 | 0 | 0 | 0 | 0
CC(=O)Nc1ccc(N=NN2CCOCC2)cc1 | 0 | 0 | 0 | 0 | 8.91µM | -
O=C(O)c1ccc(N=NN2CCCC2)cc1 | 0 | 0 | 0 | 0 | 35.5µM | -
Cc1nc(N2CCOCC2)c2nc(-c3ccccc3)n(CCN3CCCCC3)c2n1 | ? | - | 0 | ? | - | -
O=C(O)c1cccc(N2C(=O)c3ccc(Oc4ccc(Cl)cc4)cc3C2=O)c1 | 0 | 0 | 0 | 0 | 0 | -
O=C(O)c1cccc(N2C(=O)/C(=C/c3ccc(SCc4ccc(Cl)cc4)o3)SC2=S)c1 | 25.1µM | 0 | 39.8µM | 22.4µM | 20µM | ?
O=C(c1ccc2c(c1)N(Cc1ccccc1)CCS2)N1CCCCC1 | ? | 0 | 39.8µM | ? | 0 | 0
CN1CCN(C(=O)c2ccc3c(c2)N(Cc2ccccc2)CCS3)CC1 | - | 0 | 0 | - | - | -
Cc1ccc(CN2CCSc3ccc(C(=O)N4CCN(c5ccc(Cl)cc5)CC4)cc32)cc1 | - | 0 | - | - | 3.16µM | -
COc1ccc(CNC(=O)c2cc(=O)c3cc(C)cc(C)c3o2)cc1 | - | 0 | 0 | - | 0 | -
CN1C[C@H](c2ccccc2)C(O)([C@]2(c3ccccc3)CN(C)C[C@@H](c3ccccc3)C2=O)[C@H](c2ccccc2)C1 (stereo partly drawn) | 0[13.5 µM] | - | - | - | - | -
N#Cc1c(NC(=O)CCC(=O)O)sc2c1CCCCC2 | 14.1µM | 0 | 20µM | ? | 44.7µM | -
Cc1sc(NC(=O)C2CCCC2)c(C#N)c1C | 14.1µM | 0 | ? | 0 | 7.08µM | 0
Cc1sc(NC(=O)CCCC(=O)O)c(C#N)c1C | 0 | 0 | 0 | 0 | ? | 0
Cc1c(C(=O)N2CCCCC2)sc(NC(=O)C2CC2)c1C#N | 0 | 0 | 0 | 0 | 0 | 0
Cc1sc(NC(=O)C2CCCO2)c(C#N)c1C (stereo not drawn) | 25.1µM | 0 | 0 | ? | ? | 0
N#Cc1c(NC(=O)C2CCCO2)sc2c1CCCCCC2 (stereo not drawn) | 14.1µM | 0 | 0 | 0 | ? | ?
COc1ccc(NC(=O)Cn2cnc3c(oc4ccccc43)c2=O)cc1OC | - | 0 | - | - | 0 | ?
COc1cccc(NC(=O)c2ccc3[nH]c(C)cc(=O)c3c2)c1 | - | 0 | - | - | ? | -
Cc1ccc(CC(=O)NC2CCSC2=O)cc1 (stereo not drawn) | 0 | 0 | 0 | 0 | 0 | -
CCC(=O)N1CCN(CCN=Cc2c(O)n(C3CCCCC3)c(=O)n(C3CCCCC3)c2=O)CC1 | 0 | - | - | - | - | -
COc1ccc(CN(C)c2ncnc3sccc23)c(OC)c1OC | - | 0 | 0 | - | 0 | -
Cc1nnc(SCC(=O)Nc2sc3c(c2C#N)CCCCC3)n1N | 22.4µM | 0 | 0 | 0 | 14.1µM | 0
N#Cc1c(NC(=O)CSc2nnnn2C2CCCCC2)sc2c1CCCC2 | ? | 0 | 0 | 0 | 0 | 0
Cc1ccc(NC(=O)C2CCCN(S(=O)(=O)c3c(C)n[nH]c3C)C2)c(C)c1 (stereo not drawn) | - | 0 | - | - | 0 | -
CC1=NN(c2ccccc2)C(=O)C1N=Nc1ccccc1 (stereo not drawn) | 0 | 0 | 0 | 0 | 0.891µM | ?
CC1=NN(c2nc(-c3ccc(C)cc3)cs2)C(=O)C1N=Nc1cccc(O)c1 (stereo not drawn) | ? | 0 | 0 | 0 | 39.8µM | -
